Experimental data from ChEMBL document CHEMBL1144473, “Selective inhibition of carboxylesterases by isatins, indole-2,3-diones” (J Med Chem, 2007).

Protein sequences, listed by entry. Tags and fused reporters are not part of them.
UniProt P06276, whole entry: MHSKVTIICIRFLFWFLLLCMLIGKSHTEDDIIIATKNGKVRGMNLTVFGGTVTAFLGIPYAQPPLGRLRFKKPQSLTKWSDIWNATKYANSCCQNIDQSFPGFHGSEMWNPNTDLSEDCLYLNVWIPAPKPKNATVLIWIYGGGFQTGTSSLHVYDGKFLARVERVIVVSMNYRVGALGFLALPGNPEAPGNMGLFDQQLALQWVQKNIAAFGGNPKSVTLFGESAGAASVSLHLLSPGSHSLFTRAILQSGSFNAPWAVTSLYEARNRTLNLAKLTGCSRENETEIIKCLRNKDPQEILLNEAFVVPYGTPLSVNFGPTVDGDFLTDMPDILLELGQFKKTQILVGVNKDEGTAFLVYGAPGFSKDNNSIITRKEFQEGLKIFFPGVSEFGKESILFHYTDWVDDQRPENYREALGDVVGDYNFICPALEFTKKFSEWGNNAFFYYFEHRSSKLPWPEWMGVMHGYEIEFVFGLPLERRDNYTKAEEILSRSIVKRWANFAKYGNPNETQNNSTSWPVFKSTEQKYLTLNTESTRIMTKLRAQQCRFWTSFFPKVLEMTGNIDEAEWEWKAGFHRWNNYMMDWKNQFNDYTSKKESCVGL

Target: Cholinesterase (Homo sapiens, UniProt P06276)

Structure (SMILES): O=C1C(=O)N(Cc2ccc(Cc3ccc(CN4C(=O)C(=O)c5ccccc54)cc3)cc2)c2ccccc21
- Ki: > 100 µM
